Results: US12157772B2, “Prophylactic agent, onset-suppressing agent or therapeutic agent for progressive immune demyelinating diseases” (NATIONAL CENTER OF NEUROLOGY AND PSYCHIATRY, priority 2016, dated 2024)

Tested on: Spleen-derived CD19+ B cells
Assay: Zbtb20 expression in spleen-derived CD19+ B cells cultured with LPS and various cytokines
Format: cell-based, mouse
Conditions: cultured for 24 h in the presence of LPS and cytokine; FIG. 33
Experimental: Spleen-derived CD19^+ B cells were isolated and purified by sorting by FACS using a FACS ARIA II (manufactured by BD Cytometry Systems, Inc.). The purified B cells were cultured for 24 h in the presence of LPS and in the co-presence or absence of each cytokine designated in FIG. 33(a). After the culturing, the expression levels of Zbtb20 gene in the respective cells were measured. As antibodies used at the detection were an anti-CD19 antibody (manufactured by Biolegend, Inc.) and an anti-Zbtb20 antibody (manufactured by Becton Dickinson, Inc.).

B1: IFNβ1: cytokine (type 1 interferon) added to B cell culture (protein, UniProt P01574 22-187, looked up)
Interferon beta: MSYNLLGFLQRSSNFQCQKLLWQLNGRLEYCLKDRMNFDIPEEIKQLQQFQKEDAALTIYEMLQNIFAIFRQDSSSTGWNETIVENLLANVYHQINHLKTVLEEKLEKEDFTRGKLMSSLHLKRYYGRILHYLKAKEYSHCAWTIVRVEILRNFYFINRLTGYLRN
For B1, the “increase in the expression of Zbtb20 gene” value was “the most remarkable”.
